The chains behind the UniProt entries cited, without tags or fusion partners.
UniProt P09382, whole entry: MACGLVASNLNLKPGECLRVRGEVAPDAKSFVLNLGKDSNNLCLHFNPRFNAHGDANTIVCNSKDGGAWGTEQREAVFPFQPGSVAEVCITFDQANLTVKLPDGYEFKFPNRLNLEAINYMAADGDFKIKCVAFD
UniProt P17931, whole entry: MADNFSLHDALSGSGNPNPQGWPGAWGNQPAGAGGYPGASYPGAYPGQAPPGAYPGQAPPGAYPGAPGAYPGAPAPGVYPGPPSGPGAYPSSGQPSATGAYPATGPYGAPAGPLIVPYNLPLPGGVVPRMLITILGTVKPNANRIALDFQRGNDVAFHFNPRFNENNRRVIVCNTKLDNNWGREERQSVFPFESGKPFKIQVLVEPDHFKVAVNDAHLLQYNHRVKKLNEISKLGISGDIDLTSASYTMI

In patent US12441754B2, “Galactoside inhibitor of galectins” (GALECTO BIOTECH AB, priority 2019, dated 2025):

Assays:
Galectin-1 = Galectin-1 (Homo sapiens, UniProt P09382); test: fluorescence anisotropy assay, compound as inhibitor of galectin / fluorescein tagged saccharide probe interaction; format: binding
Protocol: (§1) The affinity of Example 1-103 for galectins were determined by a fluorescence anisotropy assay where the compound was used as an inhibitor of the interaction between galectin and a fluorescein tagged saccharide probe as described Sörme, P., Kahl-Knutsson, B., Huflejt, M., Nilsson, U. J., and Leffler H. (2004) Fluorescence polarization as an analytical tool to evaluate galectin-ligand interactions. Anal. Biochem. 334: 36-47, (Sörme et al., 2004) and Monovalent interactions of Galectin-1 By Salomonsson, Emma; Larumbe, Amaia; Tejler, Johan; Tullberg, Erik; Rydberg, Hanna; Sundin, Anders; Khabut, Areej; Frejd, Torbjorn; Lobsanov, Yuri D.; Rini, James M.; et al, From Biochemistry (2010), 49(44), 9518-9532, (Salomonsson et al., 2010).

Galectin-3 = Galectin-3 (Homo sapiens, UniProt P17931); test: as above; format: binding
Protocol: as §1

Nc1nc(-c2cn([C@@H]3[C@@H](O)[C@@H](Sc4cc(Cl)c(F)c(Cl)c4)O[C@H](CO)[C@@H]3O)nn2)cs1 [Example 32, 3,5-Dichloro-4-fluorophenyl 3-[4-(2-aminothiazol-4-yl)-1H-1,2,3-triazol-1-yl]-3-deoxy-1-thio-α-D-galactopyranoside]
Kd (Galectin-1): 0.15 µM | Kd (Galectin-3): 5 µM
